Results from publication PMC10946398 (Journal of Medicinal Chemistry, 2024).
Where “and” joins values, the source holds several entries; their conditions need not be identical. Identical values can stand only once.

Test: parallel artificial membrane permeability assay
Format: in vitro ADME
Conditions: for permeation increase (Log): increase of 18c (PAMPA −LogPe […]) over the listed compound

propranolol [Prop., reference compound]
PAMPA −LogPe (100 μM, phosphate buffer pH 6.4, 17 h, 37 °C, 150 rpm, triplicates): 5.41 ± 0.22 and 5.41 | permeation increase (Log): 0.78 Log | permeation increase (Log) (listed as propanolol): about 0.78 Log
